Results taken from US20100056458A1, “Peptides Inhibiting Angiotensin-Converting Enzyme” (CAMPINA NEDERLAND HOLDING B.V., priority 2005, published 2010).
Blank lines part the entries; values can stand above or below the substance they belong to.

Test system: angiotensin-converting enzyme (ACE)
Assay: HPLC with mass spectrometry and on-line bioassay unit for assessing ACE-inhibiting activity
Format: biochemical
From the text: The identity and the activity of the peptides and their mixtures can be determined by known methods, e.g. as described by Van Elswijk et al. J Chromatography A, 1020 (2003) 45-58, involving liquid chromatography coupled to mass spectroscopy, and on-line bioassay. […] The IC50 can be determined in vitro as described by V. Vermeirsen, J. van Camp & J. Verstraete, “Optimisation and validation of an angiotensin-converting enzyme inhibition assay for the screening of bioactive peptides”. J. Biochem. Biophys. Methods 51, 75-87 (2002).
The peptides obtained according to example I, were analysed using HPLC as described by Van Elswijk et al. J Chromatography A 1020 (2003) 45-58. The HPLC eluate was divided over a mass spectrometry for determining the peptide structure and a bioassay unit for assessing the ACE-inhibiting activity. The following peptides were identified: AVP (SEQ ID No. 25), LV (SEQ ID No. 5) and IV (SEQ ID No. 1). Another batch of the same caseinate contained the peptides KIHP (SEQ ID No. 28), KK (SEQ ID No. 73), VPYPQR (SEQ ID No. 20), and KYKVPQ (SEQ ID No. 91). Starting with other casein sources the peptides VLGPV (SEQ ID No. 10), VLPVPQK (SEQ ID No. 75), VPYPQ (SEQ ID No. 21), KK (SEQ ID No. 73), VNELSK (SEQ ID No. 76), and FFVAPFPEVFG (SEQ ID No. 33) were found.
Similarly the product from example II was analysed and contained IAEKT (SEQ ID No. 57), LDIQK (SEQ ID No. 74) and LKALP (SEQ ID No. 64). Starting from other whey protein sources WPC 60 or whey protein isolate, VLGPV (SEQ ID No. 10), VLPVPQ (SEQ ID No. 18), MKGLDI (SEQ ID No. 41), LR (SEQ ID No. 44), MHIRLS (SEQ ID No. 48), IIA (SEQ ID No. 56) were identified.

[1] = hydrolysate of example I (calcium caseinate)

- identified as ACE-inhibiting peptide [1]: identified
Substance: IV (listed as Bos taurus)

- identified as ACE-inhibiting peptide (another batch of the same caseinate): contained
- identified as ACE-inhibiting peptide (other casein sources): found
Substance: KK: β-casein-derived peptide

- identified as ACE-inhibiting peptide (other whey protein sources WPC 60 or whey protein isolate): identified
Substance: LR (listed as Bos taurus)

- identified as ACE-inhibiting peptide [1]: identified
Substance: LV (listed as Bos taurus)
